Data on one compound can be found in publication PMC5681660, “Reduced hepatitis B and D viral entry using clinically applied drugs as novel inhibitors of the bile acid transporter NTCP” (Scientific Reports, 2017).

Protein sequences, listed by entry. Tags and fused reporters are not part of them.
UniProt Q14973, whole entry: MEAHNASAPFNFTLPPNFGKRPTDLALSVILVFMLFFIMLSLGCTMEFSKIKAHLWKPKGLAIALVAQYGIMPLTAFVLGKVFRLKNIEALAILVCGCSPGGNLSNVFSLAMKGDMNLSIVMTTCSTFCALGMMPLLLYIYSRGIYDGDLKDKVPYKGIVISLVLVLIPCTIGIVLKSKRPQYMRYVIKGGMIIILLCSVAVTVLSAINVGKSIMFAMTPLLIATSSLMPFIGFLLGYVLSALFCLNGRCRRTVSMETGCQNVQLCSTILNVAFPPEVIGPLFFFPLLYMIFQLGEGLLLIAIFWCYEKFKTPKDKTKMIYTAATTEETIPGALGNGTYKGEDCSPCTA

Test [1] addresses T1, human NTCP (Homo sapiens, UniProt Q14973). Kind of test: Screening fluorescent competitive Myrcludex B-FITC binding assay (96-well, 10 µM drug). Particulars: U2OS-HA-hNTCP cells.
Test [2] concerns the target T1, human NTCP. Kind of test: Screening taurocholate uptake assay (96-well, [14C]taurocholate, 10 µM drug). The following applies: U2OS-HA-hNTCP cells.

Regarding `COc1cc(-c2ccc(/N=N/c3ccc4c(S(=O)(=O)O)cc(S(=O)(=O)O)c(N)c4c3O)c(OC)c2)ccc1/N=N/c1ccc2c(S(=O)(=O)O)cc(S(=O)(=O)O)c(N)c2c1O`, the “%NTCP binding” value in test [1] is recorded as -1.33%. Further, the “%NTCP activity” value in test [2] stood at 8.529%.
